# The hits were mostly taken out for another list; the other results follow. Active and inactive are the calls of the source.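 How the source made its calls: active means melting temperature shift above 3 C; inconclusive means shift above 1 C but not above 3 C; inactive means the rest.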
# Amino acid sequences for entries named in this document (tags omitted). A change or cut given only in a name is not applied to a line headed by its entry.
# UniProt P15428: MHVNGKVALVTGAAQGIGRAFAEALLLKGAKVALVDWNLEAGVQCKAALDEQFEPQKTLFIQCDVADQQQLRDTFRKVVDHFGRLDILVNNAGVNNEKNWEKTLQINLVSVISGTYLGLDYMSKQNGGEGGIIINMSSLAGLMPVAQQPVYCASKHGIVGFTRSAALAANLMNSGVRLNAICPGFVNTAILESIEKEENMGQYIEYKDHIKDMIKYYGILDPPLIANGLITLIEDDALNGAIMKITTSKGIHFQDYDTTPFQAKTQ
# Target: 15-hydroxyprostaglandin dehydrogenase [NAD(+)] (Homo sapiens) (UniProt P15428)
# Test: Thermal Shift Assay for Inhibitors of HPGD (15-Hydroxyprostaglandin Dehydrogenase)
# Details: Recombinant HPGD thermal shift, SYPRO orange DSF, at 250 µM, stronger effect = higher value
# Protocol: Assay Overview: Human 15-Hydroxyprostaglandin dehydrogenase (HPGD) catalyzes the inactivation of prostaglandin E2, and plays a major role in cancer biology by antagonizing the oncogenic potential of cyclooxygenase type 2 (COX2). Studies to assess the stability of human 15-PGDH in presence of compounds was performed as described (Niesen et al., 2007) with variations. References 1. Myung SJ, Rerko RM, Yan M, Platzer P, Guda K, Dotson A, Lawrence E, Dannenberg AJ, Lovgren AK, Luo G, Pretlow TP, Newman RA, Willis J, Dawson D, Markowitz SD. 15-Hydroxyprostaglandin dehydrogenase is an in vivo suppressor of colon tumorigenesis. Proc Natl Acad Sci U S A. 2006 Aug 8;103(32):12098-102. 2. Yan M, Rerko RM, Platzer P, Dawson D, Willis J, Tong M, Lawrence E, Lutterbaugh J, Lu S, Willson JK, Luo G, Hensold J, Tai HH, Wilson K, Markowitz SD. 15-Hydroxyprostaglandin dehydrogenase, a COX-2 oncogene antagonist, is a TGF-beta-induced suppressor of human gastrointestinal cancers. Proc Natl Acad Sci U S A. 2004 Dec 14;101(50):17468-73. 3. […]
# HPGD was diluted to a final assay concentration of 1 uM in 100 mM Tris buffer, pH 8.0, containing 0.01% Tween-20 and 1:1000 SYPRO orange dye. […] Heat denaturation curves were recorded using a RT-PCR instrument (Mx3005p, Agilent) applying a temperature gradient of 2 degree C/min. […]
structure (smiles),measurement,setting,value
N#Cc1ccccc1CSc1nc2ncc(Br)cc2[nH]1,thermal shift (delta Tm),,active: 12.2 C
same,thermal shift (delta Tm),measured here: delta Tm with NADH cofactor,2.9 C

# — PubChem BioAssay AID2427 (National Center for Advancing Translational Sciences (NCATS), 2010)
